# Assay results: PMC2920453 (Chemistry & biology, 2010)
# Amino acid sequences for entries named in this document (tags omitted). A change or cut given only in a name is not applied to a line headed by its entry. Residues count along the entry.
# UniProt P41212: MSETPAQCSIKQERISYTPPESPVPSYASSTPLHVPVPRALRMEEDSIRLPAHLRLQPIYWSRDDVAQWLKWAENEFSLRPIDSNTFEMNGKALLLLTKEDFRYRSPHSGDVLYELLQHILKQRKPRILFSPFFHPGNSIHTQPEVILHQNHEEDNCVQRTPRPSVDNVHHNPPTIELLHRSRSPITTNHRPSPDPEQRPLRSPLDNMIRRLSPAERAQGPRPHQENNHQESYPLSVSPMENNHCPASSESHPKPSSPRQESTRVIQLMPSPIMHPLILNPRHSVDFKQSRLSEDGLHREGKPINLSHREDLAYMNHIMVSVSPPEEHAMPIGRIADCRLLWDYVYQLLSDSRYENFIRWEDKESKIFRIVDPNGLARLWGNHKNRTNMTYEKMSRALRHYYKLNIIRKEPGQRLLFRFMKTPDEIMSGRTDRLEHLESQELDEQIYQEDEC
# UniProt P51813, 417-675 limits assumed: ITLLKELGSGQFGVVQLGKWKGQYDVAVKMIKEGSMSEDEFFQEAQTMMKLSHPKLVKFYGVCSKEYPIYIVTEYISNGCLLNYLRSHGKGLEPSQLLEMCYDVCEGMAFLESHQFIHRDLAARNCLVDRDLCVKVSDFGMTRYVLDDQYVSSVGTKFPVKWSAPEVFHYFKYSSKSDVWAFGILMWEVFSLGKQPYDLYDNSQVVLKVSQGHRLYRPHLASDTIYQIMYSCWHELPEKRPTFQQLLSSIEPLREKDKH
# UniProt O60674, 849-1124 limits assumed: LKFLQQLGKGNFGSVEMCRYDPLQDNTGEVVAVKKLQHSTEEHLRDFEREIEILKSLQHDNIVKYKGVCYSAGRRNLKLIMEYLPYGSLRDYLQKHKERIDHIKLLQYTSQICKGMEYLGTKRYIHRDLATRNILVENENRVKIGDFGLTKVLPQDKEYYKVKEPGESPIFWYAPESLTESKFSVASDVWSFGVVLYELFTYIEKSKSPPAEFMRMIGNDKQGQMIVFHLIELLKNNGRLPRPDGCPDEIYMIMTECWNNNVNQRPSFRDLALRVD
# UniProt P51451, 241-494 limits assumed: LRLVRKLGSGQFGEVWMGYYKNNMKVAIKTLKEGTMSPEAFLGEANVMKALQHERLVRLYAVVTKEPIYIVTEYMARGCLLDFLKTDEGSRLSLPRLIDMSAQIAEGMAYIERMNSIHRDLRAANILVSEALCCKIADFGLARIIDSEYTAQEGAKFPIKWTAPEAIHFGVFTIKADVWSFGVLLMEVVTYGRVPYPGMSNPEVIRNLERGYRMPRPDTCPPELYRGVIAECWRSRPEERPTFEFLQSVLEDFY
# Key:
# Details in all cases: 48 hours
# [1] = biological target: Tel-Bmx transformed Ba/F3 cells (Homo sapiens, UniProt P41212+P51813)
# [2] = biological target: Tel-Jak2 transformed Ba/F3 cells (Homo sapiens, UniProt O60674+P41212)
# [3] = biological target: Tel-Blk transformed Ba/F3 cells (Homo sapiens, UniProt P41212+P51451)
structure (smiles),measurement,setting,value
C=CC(=O)Nc1cccc(CN2C(=O)N(c3c(Cl)c(OC)cc(OC)c3Cl)Cc3cnc(NCCCCN(CC)CC)nc32)c1 [FIIN-1],EC50,[1],2000 nM
same,EC50,[2],5000 nM
same,EC50,[3],2000 nM
